This is a selection; strong and weak results do not stand in their true shares. Active and inactive are the calls of the source.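 Rule for the calls: active = activation above the run's mean compound activation plus 3 SD (cut at about 16% in these data); inactive = the rest.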

Amino acid sequences for entries named in this document (tags omitted). A change or cut given only in a name is not applied to a line headed by its entry.
UniProt P11229: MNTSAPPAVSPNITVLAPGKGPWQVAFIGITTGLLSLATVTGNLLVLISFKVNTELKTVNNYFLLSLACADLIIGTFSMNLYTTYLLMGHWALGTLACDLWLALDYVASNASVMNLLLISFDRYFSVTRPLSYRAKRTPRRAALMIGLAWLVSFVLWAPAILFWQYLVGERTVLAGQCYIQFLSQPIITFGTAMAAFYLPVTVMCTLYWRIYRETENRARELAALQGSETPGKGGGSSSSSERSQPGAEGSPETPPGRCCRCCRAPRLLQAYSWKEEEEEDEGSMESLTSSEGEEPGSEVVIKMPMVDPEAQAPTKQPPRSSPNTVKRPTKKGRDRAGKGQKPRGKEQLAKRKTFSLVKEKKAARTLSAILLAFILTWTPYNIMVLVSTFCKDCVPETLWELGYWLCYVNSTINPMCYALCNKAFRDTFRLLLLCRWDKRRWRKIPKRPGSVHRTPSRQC

In this experiment the target is Muscarinic acetylcholine receptor M1 (Homo sapiens) (UniProt P11229). Description: CHRM1 activation via calcium signal – Fluo-8 calcium fluorescence, CHO-K1 cells, HTS, primary screen (AID 588814).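 Note: peak over basal fluorescence ratio within a 140 s kinetic read after compound addition.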 The following applies: CHO-K1 hM1, Fluo-8 calcium fluorescence, agonist mode; at 3 µM; hits give high values; 0% DMSO, 100% acetylcholine EC100.
Take `CCc1cc(O)c([N+](=O)[O-])c(C)c1[N+](=O)[O-]`: the activation is inactive: 5.23%. Consider `CC(C)(C)C(=O)NC(Sc1ccccc1)C(Cl)(Cl)Cl` (configuration not stated), for which the activation was inactive: -15.3%. As to `CCOc1ccc(C2=NCC(CBr)S2)cc1` (configuration not stated), the activation was inactive: -1.52%.

Consider `O=P1(Nc2nc3ccc(Cl)cc3s2)COc2ccccc2O1` (configuration not stated), for which the activation was inactive: -4.67%. As to `CCN(C(=O)COC(=O)C(O)(c1ccccc1)c1ccccc1)c1c(N)n(Cc2ccccc2)c(=O)[nH]c1=O`, the activation is inactive: -0.47%. On to `O=c1c2cc([N+](=O)[O-])ccc2[nH]c2c([N+](=O)[O-])cc([N+](=O)[O-])cc12`, for which the activation is inactive: 15.2%.

`CN(C)C(=O)Oc1noc2ccccc12`: the activation was inactive: -3.63%.

For the compound `CC(NC(=O)COC(=O)C(O)(c1ccccc1)c1ccccc1)c1ccccc1` (configuration not stated), the activation was inactive: -1.68%. For the compound `Cc1ccccc1OP(=O)(Nc1ccccn1)Oc1ccccc1C`, the activation is inactive: -1.98%.

`Cc1ccc(OP(=O)(Nc2ccccn2)Oc2ccc(C)cc2)cc1`: the activation was inactive: -9.55%. For the compound `CC(=O)NC(SC(=S)N(CC(C)C)CC(C)C)C(Cl)(Cl)Cl` (configuration not stated), the activation was inactive: -4.57%. As for `COC(=O)c1cc2c(s1)N=C(c1ccccc1)N(C)P2(=O)N1CCOCC1` (configuration not stated), the activation is inactive: 1.43%.

For the compound `CCC(=O)N1C2C3N(C(=O)CC)C1C1N(C(=O)CC)C(C(N1C(=O)CC)N3C(=O)CC)N2C(=O)CC`, the activation was inactive: -1.88%.

As to `Clc1ccc(N2CCN(Cc3c[nH]c4ncccc34)CC2)cc1`, the activation was inactive: -1.92%.

`O=C(OC1CN2CCC1CC2)c1ccccc1` (configuration not stated): the activation was inactive: -10.7%. Consider `O=P1(N(CCCl)CCCl)OCCC2CCCCN21` (configuration not stated), for which the activation is inactive: -1.01%. `CC1C(=O)OC2CCN3CC4OC4(COC(=O)C(C)(O)C1(C)O)C23` (configuration not stated): the activation was inactive: 1.97%. The result for `O=C(NC1CCS(=O)(=O)C1)NP(=S)(Oc1ccccc1)Oc1ccccc1` (configuration not stated) reads inactive: -7.57%; that for `CCNC(=S)/N=C(\N)N[N+](=O)[O-]`, inactive: -3.34%; that for `C=C1C(=O)OC2CCN3CC=C(COC(=O)C(C)(O)C4(CO4)C1C)C23` (configuration not stated), inactive: -12.3%.

On to `Cc1ccc(NP(=O)(Oc2cccc(C)c2)Oc2cccc(C)c2)nc1`, for which the activation is inactive: -0.72%. On to `c1ccc(-c2nn[nH]n2)c(-c2nn[nH]n2)c1`, for which the activation is inactive: -5.04%.

Values taken from PubChem BioAssay AID588814 (The Scripps Research Institute Molecular Screening Center, 2011).
